Experiment [1] deals with nucleosome on lambda DNA, reconstituted with fluorescently labeled histone octamer (Cy3-H2A or JFX554-H2A(K120C)) (UniProt P04911). In words: single-molecule two-color colocalization on optically trapped DNA (optical tweezers with confocal microscopy); as a2, with 1 mM ATP; translocation events are included in the 'non-diffusive' state.
Experiment [2] has the same target. In words: single-molecule two-color colocalization on optically trapped DNA (optical tweezers with confocal microscopy); JFX650-labeled remodeler on sparse lambda nucleosome array (Cy3 or JFX554 on H2A) at ~5 pN, no ATP; dwell time of the 'non-diffusive' state of remodelers colocalized within ~500 bp of a nucleosome; double exponential fits.
The target is the same in experiment [3].
Experiment [4] has the same target. This is another data set of the same source.
Experiment [5] shares this target. The experiment can be described thus: single-molecule two-color colocalization on optically trapped DNA (optical tweezers with confocal microscopy); as a2, with 1 mM ATPγS.

The values that follow come from PMC10948146.

Turning to “RSC chromatin remodeling complex with Sth1-3xFlag-HaloTag, labeled with JFX650 or JFX554 (from UniProt P32597 1-1359)”, the half-life of the non-diffusive state at a nucleosome was 23 s in experiment [1], 18 s in experiment [2] and 28 s in experiment [5]. Besides, in experiment [3], the half-life of nucleosome translocation events (1 mM ATP) worked out at 20 s. In addition, the average nucleosome translocation speed (1 mM ATP) in experiment [4] worked out at 29 bp/s. Besides, the median duration of uninterrupted, speed-constant nucleosome translocations (1 mM ATP) in experiment [4] is 33 s.
For “ISW2 chromatin remodeling complex with Isw2-3xFlag-HaloTag, labeled with JFX650 (from UniProt Q08773 1-1120)”, the results for the half-life of the non-diffusive state at a nucleosome in experiment [1], in experiment [2] and in experiment [5] were 12 s, 28 s and 28 s, respectively. Moreover, the half-life of nucleosome translocation events (1 mM ATP) in experiment [3] was found to be 17 s. This substance yielded an average nucleosome translocation speed (1 mM ATP) in experiment [4] of 29 bp/s. In addition, the median duration of uninterrupted, speed-constant nucleosome translocations (1 mM ATP) in experiment [4] is 22 s.
